Assay results published in patent US20070244123A1.

Protein sequences, listed by entry. Tags and fused reporters are not part of them.
UniProt P15056, whole entry: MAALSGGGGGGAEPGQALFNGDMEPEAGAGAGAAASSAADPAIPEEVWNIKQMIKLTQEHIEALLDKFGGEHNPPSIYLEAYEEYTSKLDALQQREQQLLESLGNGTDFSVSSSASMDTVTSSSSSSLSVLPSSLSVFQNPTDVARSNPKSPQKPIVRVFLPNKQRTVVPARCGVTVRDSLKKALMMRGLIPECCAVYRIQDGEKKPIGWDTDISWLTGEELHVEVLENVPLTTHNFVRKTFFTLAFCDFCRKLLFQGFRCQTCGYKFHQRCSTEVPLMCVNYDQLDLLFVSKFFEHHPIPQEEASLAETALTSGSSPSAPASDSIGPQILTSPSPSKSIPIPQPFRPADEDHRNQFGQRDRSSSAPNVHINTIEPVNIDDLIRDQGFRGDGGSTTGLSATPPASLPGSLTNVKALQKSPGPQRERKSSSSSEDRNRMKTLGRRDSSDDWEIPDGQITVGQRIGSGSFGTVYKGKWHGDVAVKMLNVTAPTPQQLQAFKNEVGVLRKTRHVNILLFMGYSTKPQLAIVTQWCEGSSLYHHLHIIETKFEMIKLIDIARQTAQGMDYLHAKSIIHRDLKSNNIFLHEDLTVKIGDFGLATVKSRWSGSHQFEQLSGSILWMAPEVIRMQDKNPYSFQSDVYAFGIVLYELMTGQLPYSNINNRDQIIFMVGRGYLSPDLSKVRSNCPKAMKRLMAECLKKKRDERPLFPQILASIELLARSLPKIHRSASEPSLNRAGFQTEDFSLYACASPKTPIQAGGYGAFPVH

Experiments:
[1] = system: Normal human foreskin fibroblasts (HFF); test: Methylene blue growth inhibition assay (Assay 2), HFF
Method: (§1) Methylene Blue Growth Inhibition Assay (Assay 2)
(§2) Normal human foreskin fibroblasts (HFF), human melanoma (A375P, SKMEL2, SKMEL3 ) colon carcinoma (Colo 205) were cultured in the following growth media: A375P, Colo 205, Roswell Park Memorial Institute (RPMI) 1640 (Life Technologies 22400-089) containing 10% fetal bovine serum (FBS); HFF, Dulbecco's modified Eagle Medium (DMEM) (Life Technologies 12320-032) containing 10% FBS; SKMEL2 and SKMEL3, Minimum Essential Medium (MEM, Life Technologies 11095-080) containing 1× non-essential amino acids (Life Technologies 11140-050) and 10% FBS. Cells were harvested using 0.25 %trypsin/1 mM, EDTA, counted using a haemocytometer, and plated in 100 microliters of the appropriate media, at the following densities, in a 96-well tissue culture plate (Falcon 3075): HFF and A375P, 5,000 cells/well; all other cell lines, 10,000 cells/well. The next day, compounds were diluted in RPMI containing 100 micrograms/ml gentamicin, at twice the final required concentration, from 10 mM stock solutions in dimethyl sulphoxide (DMSO). One hundred microliters per well of these dilutions were added to the 100 microliters of media currently on the cell plates. RPMI containing 0.6% DMSO was added to control wells. […] Optical density at 620 nm was measured on a microplate reader. Percent inhibition of cell growth was calculated relative to vehicle treated control wells. […]

[2] = system: colon carcinoma (Colo 205); test: Methylene blue growth inhibition assay (Assay 2), Colo205; conditions: Colo205, colorectal cancer, B-Raf V599E, Ras wt, Assay 2, 3 days
Method: as §1, §2

[3] = system: human colon carcinoma (Colo 201) cells; test: XTT 72 hr growth inhibition (Assay 3), Colo201; conditions: Colo201, colorectal cancer, Assay 3, 72 hr
Method: XTT 72 hr Growth Inhibition Protocol for Mammalian Cultured Cells (Assay 3)
Human diploid foreskin fibroblasts (HFF) or human colon carcinoma (Colo 201) cells were grown in Dulbecco's modified Eagle's medium (DMEM) (Invitrogen/Life Technologies) containing 10% fetal bovine serum (FBS) and the antibiotics penicillin (100 Units/ml) and streotomycin (100 micrograms/ml) (Invitrogen/Life Technologies). Growth was at 37° C. in humidified 5% CO2 incubators in 75 cm^2 plastic flasks. Cells were harvested using 0.25% trypsin/1 mM ethylenediaminetetraacetic acid (EDTA), resuspended in growth medium, and counted using a hemocytometer. Flat-bottomed 96-well plates were seeded with 2×10^3 cells/well in a volume of 200 ul from trypsinized exponentially growing cultures. To “blank” wells, growth medium was added with no additions. Cells were incubated overnight to permit attachment.
Next day, medium from wells that contained cells was replaced with 180 microliters of fresh medium. Appropriate dilutions of test compounds were added to the wells from stock solutions of compound dissolved in dimethyl sulfoxide (DMSO); final DMSO concentration in all wells was 0.2%. […] Absorbance at 450 nm was then determined using a 96-well UV plate reader (Molecular Devices). Under these conditions, absorbance of untreated control cells at 450 nm was at least 1.0 optical density unit/ml. […]

[4] = system: human melanoma SKMEL3; test: Methylene blue growth inhibition assay (Assay 2), SKMEL3
Method: as §1, §2

[5] = system: human melanoma A375P; test: Methylene blue growth inhibition assay (Assay 2), A375P
Method: as §1, §2

[6] = system: human melanoma SKMEL2; test: Methylene blue growth inhibition assay (Assay 2), SKMEL2
Method: as §1, §2

[7] = target: B-Raf (Homo sapiens, UniProt P15056); test: Fluorescence anisotropy kinase binding assay (Assay 1); conditions: read-out: B-Raf, nM Kd
Excerpt: Fluorescence Anisoptrophy Kinase Binding Assay
The concentration of kinase enzyme should preferably be ≦1× Kf. The concentration of fluorescent ligand required will depend on the instrumentation used, and the fluorescent and physicochemical properties. The concentration used must be lower than the concentration of kinase enzyme, and preferably less than half the kinase enzyme concentration. A typical protocol is:
All compounds are serially diluted in DMSO, then by a one step dilution into buffer of comparison, 50 mM HEPES, […] pH7.5, 1 mM CHAPS, 10 mM MgCL2, for the assay.
B-Raf Enzyme concentration: 1 nM
Fluorescent ligand concentration: 0.5 nM
Test compound concentration: 0.5 nM-100 uM
Components incubated in 10 ul final volume in LJL HE 384 type B black microtitre plate until equilibrium reached (Over 3 h, up to 30 h)
Fluorescence anisotropy read in an LJL Acquest fluorescence reader.
Definitions: Ki=dissociation constant for inhibitor binding
• Kf=dissociation constant for fluorescent ligand binding
The fluorescent ligand is the following compound: [drawing 7]
which is derived from 5-[2-(4-aminomethylphenyl)-5-pyridin-4-yl-1H-imidazol-4-yl]-2-chlorophenol and rhodamine green.

IC50 ([2]; read-out: IC50 class Colo205): > 3 µM | IC50 ([2]; read-out: IC50 growth inhibition Colo205): > 19 µM | IC50 ([3]; read-out: IC50 class Colo201): > 3 µM | IC50 ([3]; read-out: IC50 growth inhibition Colo201): 12 µM | IC50 ([4]; read-out: IC50 class SKMEL3, B-Raf V599E, Ras wt, Assay 2, 3 days): > 3 µM | IC50 ([4]; read-out: IC50 growth inhibition SKMEL3, B-Raf V599E, Ras wt, Assay 2, 3 days): 4.3 µM | IC50 ([5]; read-out: IC50 class A375P, B-Raf V599E, Ras wt, Assay 2, 3 days): > 3 µM | IC50 ([5]; read-out: IC50 growth inhibition A375P, B-Raf V599E, Ras wt, Assay 2, 3 days): 9.8 µM | IC50 ([6]; read-out: IC50 class SKMEL2, B-Raf wt, [Q61R]N-Ras, Assay 2, 3 days): > 3 µM | IC50 ([6]; read-out: IC50 growth inhibition SKMEL2, B-Raf wt, [Q61R]N-Ras, Assay 2, 3 days): 6.2 µM | Kd [7]: 18 nM
SMILES: CN(C)CCN(C)C(=O)c1cc(-c2ccncc2)c(-c2ccc(Cl)c(O)c2)o1
IC50 ([1]; read-out: IC50 class HFF, B-Raf wt, Ras wt, Assay 2, 3 days): > 3 µM | IC50 ([1]; read-out: IC50 growth inhibition HFF, B-Raf wt, Ras wt, Assay 2, 3 days): > 30 µM

Read-outs that look alike come from different tables or passages of the source.
